Results reported in patent US8623864B2, “Thioridazine and derivatives thereof for reversing anti-microbial drug-resistance” (NOA Sic Aps, priority 2003, dated 2014).

Amino acid sequences for entries named in this document (tags omitted).
UniProt P14416, whole entry: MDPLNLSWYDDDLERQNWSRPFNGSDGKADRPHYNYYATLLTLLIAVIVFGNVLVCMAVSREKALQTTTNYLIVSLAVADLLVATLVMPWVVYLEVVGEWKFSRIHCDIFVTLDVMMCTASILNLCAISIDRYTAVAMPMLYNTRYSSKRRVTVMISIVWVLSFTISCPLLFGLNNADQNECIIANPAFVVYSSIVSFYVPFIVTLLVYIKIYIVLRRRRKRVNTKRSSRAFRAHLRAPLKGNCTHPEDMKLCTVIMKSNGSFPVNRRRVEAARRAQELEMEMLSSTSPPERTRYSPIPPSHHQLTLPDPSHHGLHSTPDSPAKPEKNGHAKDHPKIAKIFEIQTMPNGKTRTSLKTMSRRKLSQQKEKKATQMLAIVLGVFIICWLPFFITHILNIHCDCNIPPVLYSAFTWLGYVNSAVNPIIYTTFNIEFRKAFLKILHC

Assays:
D2-receptors = D2-receptors (Homo sapiens, UniProt P14416); conditions: earlier reports (Svendsen et al. 1988); cited from earlier work
Streptococcus strains = test: Reversal of resistance towards erythromycin; format: cell-based; conditions: compared with the other forms of thioridazine

Row | SMILES | Receptor affinity / blockade (D2-receptors) | Efficiency in reversing resistance towards erythromycin (Streptococcus strains)
1 | CSc1ccc2c(c1)N(CC[C@H]1CCCCN1C)c1ccccc1S2 [dextrorotatory isomer, (R)-thioridazine] | high affinity for D2-receptors | 
2 | CSc1ccc2c(c1)N(CC[C@@H]1CCCCN1C)c1ccccc1S2 [levorotatory enantiomer, (S)-thioridazine] | weaker blockade of dopamine D2-receptors | much more efficient in reversing resistance towards erythromycin
